Measurements: patent US20230357354A1, “CD38-BINDING CD31 PEPTIDES AND USES THEREOF” (ENCEFA, priority 2020, published 2023)

Assays:
dog PBMCs = assay: Glucose uptake assay in dog PBMCs; type: cell-based; details: vs PBS
Procedure: (§1) Human Daudi cells cultured in 75 cm^2 flask were centrifuged ( 300 g, 3 minutes), resuspended in warmed PBS supplemented with 10 % goat serum and seeded in 96-well microplate ( 100 µL, 2 × 10^6 cells/mL) in order to deprive cells from glucose. Cells were treated with test treatments (10 µg/mL) for 1 hour (37° C.). Cells were then incubated with 500 µM of the fluorescent and non-metabolizable glucose analog 2-NBDG ((2R,3R,4S,5R)-3,4,5,6-tetrahydroxy-2-[(7-nitro-2,1,3-benzoxadiazol-4-yl)amino]hexanal; Thermo Fischer) for 30 minutes at 37° C., and washed 4 times with PBS containing 10 % of goat serum. Images were acquired using a Zeiss microscope (20 X) and the relative fluorescence intensity of 30 cells was determined using Fiji.
(§2) The same method used for human Daudi cells was used for dog and cat PBMCs, with 200,000 cells plated per well.

[1] = test system: folic acid-induced acute kidney injury model; assay: Folic acid-induced acute kidney injury (AKI) mouse model, blood urea nitrogen; type: in vivo, mice; details: s.c. every day; folic acid 250 mg/kg
Procedure: Animals were injected with PBS or folic acid (250 mg/kg dissolved in 0.3 M sodium bicarbonate). Blood samples were collected every day for 3 consecutive days. Sera were obtained by centrifuging blood samples at 2,500 g for 20 minutes at 4° C. and frozen at -80° C. BUN levels were determined using a BUN assay kit (ThermoFischer) according to manufacturer’s instructions.

[2] = test system: LPS-induced type 2 diabetes (T2DM) mouse model; assay: LPS-induced type 2 diabetes (T2DM) mouse model; type: in vivo, mice; details: s.c. daily for one week; LPS 700 µg/kg ip daily for two weeks
Procedure: Mice (n = 5 per group) were daily injected with LPS (700 µg/kg ip) for two weeks. One week after LPS treatment initiation, mice were daily injected with SEQ ID NO: 10 (50 µg/kg s.c.) for one week.
(§3) Glycaemia was measured using a Contour XT glucometer (Ascensia Diabetes Care) and appropriate measurement strips (Contour Next). Fasting glycaemia was first measured (T0), and then glucose was administered via i.p. injection (2 g/kg). Glycaemia measurements were performed 15, 30, 90, and 120 minutes after i.p. glucose injection.
(§4) Blood samples were collected before glucose injection as well as 15 minutes after glucose injection. Sera were obtained by centrifuging blood samples at 2500 g for 20 minutes at 4° C. and frozen at -80° C. Serum insulin was measured using an ultrasensitive mouse insulin ELISA kit according to the manufacturer’s instructions (Crystal Chem).

HFD mouse model = assay: Short high fat diet-induced obesity (HFD) mouse model; type: in vivo, mice; details: s.c. every day, high fat diet 3 days
Procedure: Animals were exposed to normal diet (10% calories from fat) or high fat diet (60% calories from fat) for 3 days. Test compound (SEQ ID NO: 10, 300 µg/kg s.c.) was administered every day starting the day before exposure to HFD. Three days after inception of the HFD regimen, mice were fasted for 5 hours and a glucose challenge was performed.
as §3, with “injection. Data were expressed as area under the curve (AUC).” for “injection.”
as §4, with “2,500” for “2500”, “Chem). Data were expressed as area under the curve (AUC).” for “Chem).”

DSS mouse model = assay: DSS-induced colitis mouse model, colon length; type: in vivo, mice; details: 300 µg/kg s.c. daily from start of DSS; 3% DSS 5 days, sacrifice day 9
Procedure: (§5) Experimental colitis was induced in mice by giving drinking water ad libitum containing 3 % (w/v) DSS for 5 days, while control mice received tap water only. Test compounds were intravenously administered (15 mg/kg) when DSS treatment began. Mice were sacrificed 9 days after the beginning of DSS treatment.
Administration of DSS causes human ulcerative colitis-like pathologies due to its toxicity to colonic epithelial cells, which results in compromised mucosal barrier function. Clinical observations similar to human pathologies, such as weight loss, diarrhea and occult blood in stool, are commonly observed in the DSS model. Moreover, diminution of the colon’s length is characteristic of this model.
as §5, with “3%” for “3 %”, “compounds (SEQ ID NO: 6 and SEQ ID NO: 10)” for “compounds”, “subcutaneously” for “intravenously”, “everyday (300 µg/kg) starting” for “(15 mg/kg)”

cat PBMCs = assay: Glucose uptake assay in cat PBMCs; type: cell-based; details: vs PBS
Procedure: as §1, §2

human Daudi cells = type: cell-based; details: 1 h

CC[C@H](C)[C@@H]1NC(=O)[C@H](C(C)C)NC(=O)[C@H](Cc2ccccc2)NC(=O)[C@H](CC(N)=O)NC(=O)[C@H](CCC(N)=O)NC(=O)[C@H](CC(=O)O)NC(=O)CNC(=O)[C@@H]2CCCN2C(=O)[C@H](CC(N)=O)NC(=O)[C@H](CCCCN)NC(=O)[C@H](CCC(=O)O)NC(=O)[C@H](CCCNC(=N)N)NC(=O)[C@H](CCCCN)NC(=O)[C@H](CC(C)C)NC(=O)[C@H](CCCCN)NC(=O)[C@H](C(C)C)NC(=O)[C@H](CCSC)NC(=O)[C@@H](N)CSSC[C@@H](C(=O)O)NC(=O)[C@H](Cc2ccccc2)NC(=O)[C@H](CCC(=O)O)NC(=O)[C@H](CC(C)C)NC1=O [SEQ ID NO: 10]
glucose uptake-increasing activity (dog PBMCs): also observed
kidney function assessed by blood urea nitrogen levels [1]: ameliorate kidney function
blood glucose and insulin levels [2]: normalize blood glucose and insulin levels
insulin sensitivity (HOMA-IR index) [2]: maintain insulin sensitivity
weight gain (HFD mouse model): reduce weight gain
glycaemia and insulin response after glucose challenge (HFD mouse model; glucose 2 g/kg i.p.): normalize glycaemia and insulin response
colon length (DSS mouse model): protect gut from shortening
glucose uptake-increasing activity (cat PBMCs): also observed
EC50 (human Daudi cells): ~2 pM
